Consider one compound from PubChem BioAssay AID2546 (National Center for Advancing Translational Sciences (NCATS), 2010).

The entries are a selection whose mix differs from that of the whole data set. Results filed as inconclusive are left out. Active and inactive are the calls of the source. Calls follow the shape of the dose curve; as a rule, active = well fitted inhibition curve with a large enough effect; inconclusive = small, poorly fitted or top-dose-only effect, or effect the other way; inactive = flat fitted curve, though single readings scatter.
% is scaled to controls: 0 for no effect and ±100 for the full control effect.

The assay in a line: VP16 counterscreen qHTS for inhibitors of ROR gamma transcriptional activity.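 Also: Gal4-VP16 expression switched on by copper sulfate through the metallothionein promoter; nearly all actives have a fitted effect of over 50% in size.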 As to conditions: Drosophila S2 Gal4-VP16 UAS-luciferase, luminescence, 20 h; at 53.6 µM (top of the series).
On to `O=[N+]([O-])c1cc([N+](=O)[O-])c(CCN2CCOCC2)c([N+](=O)[O-])c1`, for which the activity, negative = inhibition was inactive: -8.28%.
